The values that follow are results of earlier work, collected in US9974782B2, “Phosphodiesterase inhibitors and uses thereof” (THE TRUSTEES OF COLUMBIA UNIVERSITY IN THE CITY OF NEW YORK, priority 2008, dated 2018).

Data set [1] has as its target PDE5 (Homo sapiens, UniProt O76074). To be noted: cited from earlier work; for IC50: read-out: IC50 against PDE5.
For data set [2], the system named is PDE1-6. To be noted: cited from earlier work.
In data set [3] the test system is PDE1-4. To be noted: cited from earlier work.

Take `CCc1cc(C#N)cc2c(NCc3ccc(OC)c(Cl)c3)c(CO)cnc12`: in data set [1], the “fold more potent than sildenafil” value is 30 fold and the IC50 is 0.05 nM. Moreover, the selectivity versus PDE1-6 in data set [2] was over 7800.

Regarding `CCn1ncc2c(NCc3ccc(OC)c(Cl)c3)c(C(=O)NCc3ccncc3)cnc21`, the IC50 in data set [1] was under 0.8 nM.

As for `CCn1ncc2c3c(NCc4ccc(OC)c(Cl)c4)nnc(-n4cnc(C(=O)OC)c4)c3cnc21`, the IC50 in data set [1] is 0.3 nM.

`COC(=O)c1c(C(=O)N2CCN(CCO)CC2)cc2c(Cl)cccc2c1-c1cc(Br)c(OC)c(OC)c1`: the IC50 in data set [1] is 6.2 nM. In addition, in data set [3], the selectivity versus PDE1-4 (PDE1-4/PDE5) is over 16000.
